This is an account of results in ChEMBL document CHEMBL4219244, “Blocking Alcoholic Steatosis in Mice with a Peripherally Restricted Purine Antagonist of the Type 1 Cannabinoid Receptor” (J Med Chem, 2018).

Chains of the proteins cited; added tags and fusions are not shown. Lines headed by an entry give the natural chain unless they say otherwise; changes in a name come on top.
UniProt P21554, whole entry: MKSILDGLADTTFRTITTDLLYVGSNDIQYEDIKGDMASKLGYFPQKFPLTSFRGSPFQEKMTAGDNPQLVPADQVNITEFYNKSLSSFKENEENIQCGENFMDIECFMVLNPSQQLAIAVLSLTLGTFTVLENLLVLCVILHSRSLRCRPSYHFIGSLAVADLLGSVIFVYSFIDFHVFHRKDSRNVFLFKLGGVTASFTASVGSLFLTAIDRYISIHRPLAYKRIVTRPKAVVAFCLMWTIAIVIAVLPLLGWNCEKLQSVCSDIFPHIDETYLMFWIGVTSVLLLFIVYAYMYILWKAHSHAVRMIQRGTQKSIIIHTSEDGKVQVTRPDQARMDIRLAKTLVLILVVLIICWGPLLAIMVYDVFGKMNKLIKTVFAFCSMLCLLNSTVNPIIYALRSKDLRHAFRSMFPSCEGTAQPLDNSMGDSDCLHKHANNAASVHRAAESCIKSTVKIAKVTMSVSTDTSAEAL
UniProt P34972, whole entry: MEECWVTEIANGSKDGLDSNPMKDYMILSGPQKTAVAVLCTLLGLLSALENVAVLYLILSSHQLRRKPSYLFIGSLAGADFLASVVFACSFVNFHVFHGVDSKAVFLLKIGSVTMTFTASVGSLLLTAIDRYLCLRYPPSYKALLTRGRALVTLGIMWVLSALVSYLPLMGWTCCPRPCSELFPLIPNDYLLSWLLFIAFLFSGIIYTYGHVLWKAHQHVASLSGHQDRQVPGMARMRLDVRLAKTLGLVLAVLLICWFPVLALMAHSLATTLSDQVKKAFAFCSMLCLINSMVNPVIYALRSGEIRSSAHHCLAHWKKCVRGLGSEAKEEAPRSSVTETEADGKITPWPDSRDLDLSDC
UniProt Q12809: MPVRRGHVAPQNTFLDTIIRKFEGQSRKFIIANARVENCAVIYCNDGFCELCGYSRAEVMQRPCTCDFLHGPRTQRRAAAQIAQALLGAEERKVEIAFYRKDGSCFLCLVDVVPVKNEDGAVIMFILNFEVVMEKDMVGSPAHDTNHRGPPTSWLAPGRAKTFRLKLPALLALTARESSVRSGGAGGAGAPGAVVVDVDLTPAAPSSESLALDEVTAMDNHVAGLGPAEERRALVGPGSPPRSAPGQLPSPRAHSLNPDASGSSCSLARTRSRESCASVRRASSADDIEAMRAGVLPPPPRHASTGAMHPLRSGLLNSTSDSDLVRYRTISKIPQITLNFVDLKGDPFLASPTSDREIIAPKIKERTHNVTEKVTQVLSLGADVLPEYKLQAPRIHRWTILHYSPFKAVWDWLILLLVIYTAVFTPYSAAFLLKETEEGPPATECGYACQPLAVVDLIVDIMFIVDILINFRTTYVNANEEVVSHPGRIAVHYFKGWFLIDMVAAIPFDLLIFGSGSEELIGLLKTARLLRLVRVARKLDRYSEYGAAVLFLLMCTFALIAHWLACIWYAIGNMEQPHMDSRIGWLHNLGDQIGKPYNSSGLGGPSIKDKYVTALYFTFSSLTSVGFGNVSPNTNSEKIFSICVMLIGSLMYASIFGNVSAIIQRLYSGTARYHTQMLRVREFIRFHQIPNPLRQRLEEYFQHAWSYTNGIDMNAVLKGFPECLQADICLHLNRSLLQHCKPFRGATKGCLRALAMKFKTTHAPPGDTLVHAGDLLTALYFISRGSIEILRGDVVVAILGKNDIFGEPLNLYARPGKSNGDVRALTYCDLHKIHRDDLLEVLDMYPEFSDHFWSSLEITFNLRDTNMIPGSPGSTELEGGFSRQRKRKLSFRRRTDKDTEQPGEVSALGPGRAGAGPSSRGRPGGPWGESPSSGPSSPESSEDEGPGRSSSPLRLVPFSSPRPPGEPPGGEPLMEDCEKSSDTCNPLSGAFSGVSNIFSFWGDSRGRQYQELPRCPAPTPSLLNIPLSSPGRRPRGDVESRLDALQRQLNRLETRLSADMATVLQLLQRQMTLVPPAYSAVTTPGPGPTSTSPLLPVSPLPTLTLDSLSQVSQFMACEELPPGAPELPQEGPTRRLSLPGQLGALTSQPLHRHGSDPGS

Molecules are shown by their SMILES. pKi: −log10 of the molar value.

In data set [1] the target is T1, Cannabinoid receptor 1 (Homo sapiens, UniProt P21554). Description: Antagonist activity at human CB1 expressed in CHOK1 cells co-expressing Galpha-q16 assessed as reduction in CP55940-induced inositol phosphatase 3-mediated intercellular calcium mobilization by Calcein-4 AM dye-based FLIPR assay. Format: functional, cell-based.
In data set [2] the target is T2, Cannabinoid receptor 2 (Homo sapiens, UniProt P34972). Description: biochemical.
Data set [3] concerns the target T1, Cannabinoid receptor 1. As to the kind of experiment: biochemical.
Data set [4] concerns the target Voltage-gated inwardly rectifying potassium channel KCNH2 (Homo sapiens, UniProt Q12809).
Data set [5] addresses T2, Cannabinoid receptor 2.
Data set [6] can be described thus: in vivo. The conditions noted are these: C57BL/6, mouse, plasma, po, 10 mg/kg.
Data set [7] is described as follows: in vivo. The conditions noted are these: C57BL/6, mouse, plasma, po, 10 mg/kg. The source holds these as a separate data set.
The nature of data set [8]: in vivo. The conditions noted are these: C57BL/6, mouse, brain, po, 10 mg/kg.
A short description of data set [9]: in vivo. The conditions noted are these: C57BL/6, mouse, plasma, po, 10 mg/kg. The source holds these as a separate data set.
A short description of data set [10]: in vivo. The conditions noted are these: C57BL/6, mouse, liver, po, 10 mg/kg.
Data set [11] can be described thus: in vivo. The conditions noted are these: C57BL/6, mouse, brain, po, 10 mg/kg. This is another data set of the same source.
Data set [12] is described as follows: in vivo. The conditions noted are these: C57BL/6, mouse, liver, po, 10 mg/kg. The source holds these as a separate data set.
Data set [13] in a line: in vivo. The conditions noted are these: C57BL/6, mouse, brain, po, 10 mg/kg. The source holds these as a separate data set.
The nature of data set [14]: in vivo. The conditions noted are these: C57BL/6, mouse, liver, po, 10 mg/kg. This is another data set of the same source.
Data set [15] concerns the target T1, Cannabinoid receptor 1.
The nature of data set [16]: Permeability from apical to basolateral side in MDCK2-MDR1 cells assessed as drug transport at 10 uM after 1 hr by mass spectrometry. It counts as ADME, cell-based, Canis lupus familiaris. The conditions noted are these: dog, mdck-mdr1, 1 h.
The species entered for another data set is Homo sapiens. Description: Selectivity ratio of Ki for human CB2 to Ki for human CB1.

For the compound `Clc1ccc(-n2c(-c3ccccc3Cl)nc3c(N4CCN(Cc5ccncc5Cl)CC4)ncnc32)cc1`, at Cannabinoid receptor 1 [1], the Ke was 3 nM. Besides, the pKi at Cannabinoid receptor 2 [2] is less than 5.00.
For `FC(F)(F)Oc1ccccc1CN1CCN(c2ncnc3c2nc(-c2ccccc2Cl)n3-c2ccc(Cl)cc2)CC1`, the Ke on Cannabinoid receptor 1 [1] is 4 nM.
Take `Fc1ccc(CN2CCN(c3ncnc4c3nc(-c3ccccc3Cl)n4-c3ccc(Cl)cc3)CC2)cc1`: the pKi on Cannabinoid receptor 1 [3] is 8.40; in data set [4], less than 5.00; at Cannabinoid receptor 2 [2], less than 5.00.
As to `CCNC1(C(N)=O)CCN(c2ncnc3c2nc(-c2ccccc2Cl)n3-c2ccc(Cl)cc2)CC1` [OTENABANT], the pKi at Cannabinoid receptor 2 [5] was 5.11.
Turning to `Clc1ccc(-n2c(-c3ccccc3Cl)nc3c(N4CCN(Cc5ccccc5Cl)CC4)ncnc32)cc1`, the values for the half-life in “in vivo [6]”, in “in vivo [8]” and in the data set “in vivo [12]” were 5.4 h, 11.9 h and 5.3 h, respectively. In addition, the Cmax in the data set “in vivo [7]” turned out to be 507 ng/mL; in the data set “in vivo [10]”, 2080 ng/g; in the data set “in vivo [13]”, 17 ng/g. Also, the time to peak (Tmax) in the data set “in vivo [9]”, in “in vivo [11]” and in the data set “in vivo [14]” was 0.5 h each time. Besides, the negative logarithm of the Ki (pKi) (in [4]; at Cannabinoid receptor 2 [2]) was less than 5.00 throughout.
With `N#Cc1ccccc1CN1CCN(c2ncnc3c2nc(-c2ccccc2Cl)n3-c2ccc(Cl)cc2)CC1`, the Ke on Cannabinoid receptor 1 [1] is 21 nM. Also, the pKi on Cannabinoid receptor 2 [2] was less than 5.00.
In turn, `Clc1ccc(-n2c(-c3ccccc3Cl)nc3c(N4CCN(Cc5ccncc5)CC4)ncnc32)cc1` gave a pKi at Cannabinoid receptor 1 [3] of 7.66. Also, the Ke on Cannabinoid receptor 1 [1] is 6 nM.
For `CN1CCN(c2ncnc3c2nc(-c2ccccc2Cl)n3-c2ccc(Cl)cc2)CC1`, the negative logarithm of the Ki (pKi) on Cannabinoid receptor 1 [15] was 8.52.
Take `Clc1ccc(-n2c(-c3ccccc3Cl)nc3c(N4CCN(Cc5cccc(Cl)c5)CC4)ncnc32)cc1`: at Cannabinoid receptor 2 [2], the pKi was less than 5.00.
`COc1ccccc1N1CCN(c2ncnc3c2nc(-c2ccccc2Cl)n3-c2ccc(Cl)cc2)CC1`: in data set [16], the Drug transport is recorded as 0%. Also, in the data set filed under Homo sapiens, the Ratio Ki worked out at 2500.
On to `Fc1ccccc1CN1CCN(c2ncnc3c2nc(-c2ccccc2Cl)n3-c2ccc(Cl)cc2)CC1`, for which the pKi at Cannabinoid receptor 1 [3] was 8.15; at Cannabinoid receptor 2 [2], 5.64. Besides, on Cannabinoid receptor 1 [1], the Ke is 0.9 nM.
Taken in the same sequence, the figures for `Clc1ccc(-n2c(-c3ccccc3Cl)nc3c(N4CCN(c5ccccn5)CC4)ncnc32)cc1` were 8.70, 5.85 and 13 nM.
Take `Cc1c(CN2CCN(c3ncnc4c3nc(-c3ccccc3Cl)n4-c3ccc(Cl)cc3)CC2)cnn1C`: the Ke at Cannabinoid receptor 1 [1] is 42 nM.
In the case of `Clc1ccc(-n2c(-c3ccccc3Cl)nc3c(N4CCN(C5CCCCC5)CC4)ncnc32)cc1`, the values for the pKi at Cannabinoid receptor 1 [3] and on Cannabinoid receptor 2 [2] were 8.70 and 6.96, respectively. At Cannabinoid receptor 1 [1], the Ke is 17 nM.
In the case of `CC(c1ccccc1)N1CCN(c2ncnc3c2nc(-c2ccccc2Cl)n3-c2ccc(Cl)cc2)CC1` (stereo unspecified), the pKi at Cannabinoid receptor 2 [2] was 5.89.
The same measure, in the same setting: as for `Clc1ccc(-n2c(-c3ccccc3Cl)nc3c(N4CCN(CCc5ccccc5)CC4)ncnc32)cc1`, the figure is 5.68; as for `Fc1ccc(N2CCN(c3ncnc4c3nc(-c3ccccc3Cl)n4-c3ccc(Cl)cc3)CC2)cc1`, 5.29.
`Cc1nc(CN2CCN(c3ncnc4c3nc(-c3ccccc3Cl)n4-c3ccc(Cl)cc3)CC2)no1`: the Ke at Cannabinoid receptor 1 [1] is 12 nM.
In the case of `FC(F)(F)c1ccccc1CN1CCN(c2ncnc3c2nc(-c2ccccc2Cl)n3-c2ccc(Cl)cc2)CC1`, the Ke on Cannabinoid receptor 1 [1] was 5 nM. On Cannabinoid receptor 2 [2], this compound showed a pKi of less than 5.00.
As to `CC(c1ccncc1)N1CCN(c2ncnc3c2nc(-c2ccccc2Cl)n3-c2ccc(Cl)cc2)CC1` (stereo unspecified), at Cannabinoid receptor 1 [1], the Ke is 0.5 nM. In addition, the pKi in [4] was less than 5.00; on Cannabinoid receptor 2 [2], 5.96. For the same compound, the Ratio Ki in the data set listed under Homo sapiens came to 92.

As a reminder, the pKi is −log10 of the Ki, conventionally taken in molar units. A lower pKi goes with a large Ki. As a reminder, the half-life is how long it takes for the measured level to halve. Higher therefore signals slow loss. By Cmax is commonly meant the highest concentration seen after dosing. As a reminder, the Tmax is the time from dosing to the highest level.
